Experiment [1] addresses human α4β2 nicotinic acetylcholine receptor (human) (UniProt P43681).
For experiment [2], the target named is human α7 nicotinic acetylcholine receptor (human) (UniProt P36544).
Experiment [3] addresses human α4β4 nicotinic acetylcholine receptor (human) (UniProt P43681).
The target of experiment [4] is human α4β2 nicotinic acetylcholine receptor (human) (UniProt P43681). The source holds these as a separate data set.
Experiment [5] has the same target. The source holds these as a separate data set.
Experiment [6] has the same target. The source holds these as a separate data set.

Take “large oligomeric α-synuclein (>4 nm) (from UniProt P37840 1-140) (natural protein)”: in experiment [1], the peak current after 10 min in 10 nM large oligomeric α-synuclein without repetitive nicotine challenges was found to be 67.5% and the peak current with repeated nicotine application (2 min interval) in 10 nM large oligomeric α-synuclein for 10 min stood at 70.8%. The peak amplitude of the hα7-nAChR-mediated current (3 mM choline) with 10 nM large oligomeric α-synuclein (not significant) in experiment [2] amounted to 93.1%. The substance also showed a peak amplitude of the hα4β4-nAChR-mediated current (3 µM nicotine) with 10 nM large oligomeric α-synuclein (not significant) in experiment [3] of 96.5%. This substance had a peak amplitude of the hα4β2-nAChR-mediated current (3 µM nicotine) with 10 nM large oligomeric α-synuclein in experiment [4] of 62.9%. For the same substance, in experiment [5], the normalized peak amplitude of the nicotinic response after 10 min exposure to large oligomeric α-synuclein came to 63.5%.

As for “monomeric α-synuclein (from UniProt P37840 1-140) (natural protein)”, the normalized peak amplitude of the nicotinic response after 10 min exposure to monomeric α-synuclein from size exclusion (not significant) in experiment [5] was 92.5%.

Take “oligomeric α-synuclein (from UniProt P37840 1-140) (natural protein)”: in experiment [6], the ACh-induced peak whole-cell current with 10 nM oligomeric α-synuclein is 81.5 % of control; the ACh-induced steady-state whole-cell current with 10 nM oligomeric α-synuclein is 78.3 % of control; the nicotine-induced peak current, 10 nM oligomeric α-synuclein co-applied with nicotine without pretreatment (no significant inhibition) was determined as 93.7%; the peak whole-cell current induced by 3 µM nicotine after 2 min pretreatment with 10 nM oligomeric α-synuclein, patch clamp on SH-EP1 cells is 77.9 % of control. The steady-state whole-cell current induced by 3 µM nicotine after 2 min pretreatment with 10 nM oligomeric α-synuclein in experiment [6] was 82.8 % of control.

As for “small oligomeric α-synuclein (1–4 nm) (from UniProt P37840 1-140) (natural protein)”, the normalized peak amplitude of the nicotinic response after 10 min exposure to small oligomeric α-synuclein (not significant) in experiment [5] came to 93.2%.
